Paper PMC6023086, “Improving the Activity of Trp-Rich Antimicrobial Peptides by Arg/Lys Substitutions and Changing the Length of Cationic Residues” (Biomolecules, 2018)
Converted amounts (≈) assume the structure as drawn.

Test system: Escherichia coli ATCC 25922
Assay type: cell-based
Settings: E. coli ATCC 25922, Mueller-Hinton broth, 5 × 10^5 cfu/mL, 37 °C, 16 h; run in triplicate, range of all three experiments
Experimental: The antibacterial activity of the Tritrp-derived peptides and other AMPs was assessed against E. coli ATCC 25922, as a representative of Gram-negative bacteria, incubated in Mueller-Hinton broth media (Table 2). […] Arg-to-Lys mutations were correlated with a decrease in activity for almost all peptides. […] The lack of sensitivity of the activity of the Tritrp3 peptide to the nature of the positively charged residues prompted a more detailed study of the structure-activity relationship. Tritrp7 and Tritrp8 are analogs of Tritrp3 where only a single Pro residue is mutated by Ala. These mutations are known to alter the 3D structure of the peptides when interacting with sodium dodecyl sulfate (SDS) micelles, specifically reducing the helicity of the original Tritrp3 peptide (Table 1).
The antibacterial activity for the peptides in this study against E. coli ATCC 25922 was determined by the broth microdilution method. […] The plates were incubated at 37 °C for 16 h, and the minimal inhibitory concentration was determined after incubation as the minimal peptide concentration at which cell growth was not observed.

## CC[C@H](C)[C@H](NC(=O)CN)C(=O)NCC(=O)N[C@@H](C)C(=O)N[C@H](C(=O)N[C@@H](CC(C)C)C(=O)N[C@@H](CCCCN)C(=O)N[C@H](C(=O)N[C@@H](CC(C)C)C(=O)N[C@H](C(=O)N[C@H](C(=O)NCC(=O)N[C@@H](CC(C)C)C(=O)N1CCC[C@H]1C(=O)N[C@@H](C)C(=O)N[C@@H](CC(C)C)C(=O)N[C@H](C(=O)N[C@@H](CO)C(=O)N[C@@H](Cc1c[nH]c2ccccc12)C(=O)N[C@H](C(=O)N[C@@H](CCCCN)C(=O)N[C@@H](CCCNC(=N)N)C(=O)N[C@@H](CCCCN)C(=O)N[C@@H](CCCNC(=N)N)C(=O)N[C@@H](CCC(N)=O)C(=O)N[C@@H](CCC(N)=O)C(N)=O)[C@@H](C)CC)[C@@H](C)CC)[C@@H](C)O)[C@@H](C)O)C(C)C)C(C)C [Melittin, reference compound]
  MIC: 2 µM (≈ 5.69 µg/mL)
